Source: PMC3256935 (Journal of Medicinal Chemistry, 2011)

Key:
[1] = target: T1, TbNMT (Trypanosoma brucei brucei, UniProt Q388H8); conditions: varying CAP5.5 concentration; cited from earlier work
T1 sequence (Q388H8 1-446): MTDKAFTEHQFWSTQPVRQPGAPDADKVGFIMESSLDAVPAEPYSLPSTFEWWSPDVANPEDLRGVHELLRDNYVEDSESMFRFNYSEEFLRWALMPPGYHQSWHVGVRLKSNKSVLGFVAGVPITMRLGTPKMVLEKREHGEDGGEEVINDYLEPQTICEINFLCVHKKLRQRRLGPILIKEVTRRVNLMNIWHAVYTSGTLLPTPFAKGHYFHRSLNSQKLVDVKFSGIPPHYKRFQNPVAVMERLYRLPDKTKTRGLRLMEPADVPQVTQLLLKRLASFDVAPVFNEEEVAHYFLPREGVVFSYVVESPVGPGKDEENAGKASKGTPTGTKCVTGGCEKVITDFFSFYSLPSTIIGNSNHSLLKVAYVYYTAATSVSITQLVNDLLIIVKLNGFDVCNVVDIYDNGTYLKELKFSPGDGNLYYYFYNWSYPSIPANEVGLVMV

[2] = system: incorporation of radiolabeled myristoyl-CoA into proteins; conditions: incubation of the parasites with compound; cited from earlier work
[3] = system: T. brucei overexpressing TbNMT; conditions: TbNMT overexpressed 5-fold in T. brucei; cited from earlier work
[4] = system: T. b. brucei GVR35; conditions: in vivo

Compound	mode of inhibition against varying concentrations of substrate peptide [1]	effect on incorporation of radiolabeled myristoyl-CoA into proteins [2]	reduced sensitivity on overexpression of TbNMT [3] [fold]	survival in stage 2 HAT model [4]
COc1cc(C)c(S(=O)(=O)Nc2c(C)nn(C)c2C)c(C)c1C [Compound 1, 4-Methoxy-2,3,6-trimethyl-N-(1,3,5-trimethyl-1H-pyrazol-4-yl)benzenesulfonamide]	competitive for substrate binding			
Cc1nn(C)c(C)c1NS(=O)(=O)c1c(Cl)cc(-c2ccnc(N3CCNCC3)c2)cc1Cl [Compound 63, 2,6-Dichloro-4-(2-piperazin-1-ylpyridin-4-yl)-N-(1,3,5-trimethyl-1H-pyrazol-4-yl)benzenesulfonamide]		prevented incorporation of radiolabeled myristoyl-CoA into proteins	8	No difference in survival time from that of vehicle control animals
